Our source for the IC50 values is patent US9855268B2, “Triazolo[4,5-d]pyrimidine derivatives” (Merck Patent GmbH, priority 2013, dated 2018).

Chains of the proteins cited; added tags and fusions are not shown.
UniProt Q9P2K8, whole entry: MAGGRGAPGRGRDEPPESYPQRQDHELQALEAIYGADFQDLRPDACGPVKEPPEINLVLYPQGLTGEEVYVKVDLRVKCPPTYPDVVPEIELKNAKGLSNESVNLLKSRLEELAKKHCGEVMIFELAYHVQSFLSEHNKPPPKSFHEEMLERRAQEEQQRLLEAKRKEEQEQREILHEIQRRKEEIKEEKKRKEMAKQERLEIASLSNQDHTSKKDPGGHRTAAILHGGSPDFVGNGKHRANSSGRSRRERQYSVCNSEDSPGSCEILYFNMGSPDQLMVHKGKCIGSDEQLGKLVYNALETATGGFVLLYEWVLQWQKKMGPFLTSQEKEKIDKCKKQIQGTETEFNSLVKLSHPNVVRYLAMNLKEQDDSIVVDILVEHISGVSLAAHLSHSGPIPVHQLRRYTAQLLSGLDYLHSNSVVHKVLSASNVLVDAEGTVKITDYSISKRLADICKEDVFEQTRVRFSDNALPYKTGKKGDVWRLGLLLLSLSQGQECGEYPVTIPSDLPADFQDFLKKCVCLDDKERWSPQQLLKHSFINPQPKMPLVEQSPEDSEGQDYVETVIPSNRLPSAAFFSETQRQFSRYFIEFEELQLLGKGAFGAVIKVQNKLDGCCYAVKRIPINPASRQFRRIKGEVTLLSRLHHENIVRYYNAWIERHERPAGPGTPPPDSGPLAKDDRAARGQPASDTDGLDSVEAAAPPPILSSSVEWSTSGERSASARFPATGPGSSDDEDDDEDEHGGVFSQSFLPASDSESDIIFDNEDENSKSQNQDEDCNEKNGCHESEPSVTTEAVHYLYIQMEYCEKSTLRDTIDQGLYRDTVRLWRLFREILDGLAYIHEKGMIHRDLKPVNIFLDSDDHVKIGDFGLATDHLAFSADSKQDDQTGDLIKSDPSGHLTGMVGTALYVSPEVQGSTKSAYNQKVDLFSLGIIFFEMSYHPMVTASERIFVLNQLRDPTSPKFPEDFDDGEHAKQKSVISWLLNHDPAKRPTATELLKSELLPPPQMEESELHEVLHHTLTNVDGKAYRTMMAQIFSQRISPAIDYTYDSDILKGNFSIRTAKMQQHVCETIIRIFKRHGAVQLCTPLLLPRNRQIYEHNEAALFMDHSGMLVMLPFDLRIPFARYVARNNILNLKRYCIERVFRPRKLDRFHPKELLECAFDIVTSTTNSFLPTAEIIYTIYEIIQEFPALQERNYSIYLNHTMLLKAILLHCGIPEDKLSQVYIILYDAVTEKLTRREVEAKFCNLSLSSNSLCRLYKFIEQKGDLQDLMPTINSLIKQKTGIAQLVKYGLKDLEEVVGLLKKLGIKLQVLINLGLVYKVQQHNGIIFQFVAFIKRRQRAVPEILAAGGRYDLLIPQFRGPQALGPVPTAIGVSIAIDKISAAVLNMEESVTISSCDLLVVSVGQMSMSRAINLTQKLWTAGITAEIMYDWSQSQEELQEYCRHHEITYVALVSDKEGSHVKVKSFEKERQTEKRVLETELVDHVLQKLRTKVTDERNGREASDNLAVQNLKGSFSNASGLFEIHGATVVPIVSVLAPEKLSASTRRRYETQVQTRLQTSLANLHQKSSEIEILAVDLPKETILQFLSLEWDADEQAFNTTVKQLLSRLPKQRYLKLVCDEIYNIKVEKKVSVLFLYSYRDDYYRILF

A value given as a limit tells only on which side of the number the result lay.

This test addresses GCN2 (Homo sapiens, UniProt Q9P2K8). Nature of the test: GCN2 enzyme assay (TR-FRET Lanthascreen, GFP-eIF2alpha phosphorylation). It is filed as biochemical. The settings on record: read-out: IC50 GCN2 (enzyme assay); 10 μM ATP, 80 nM GFP-eIF2a, 30 nM GCN2. (TR-FRET usually uses a lanthanide donor and a delayed reading to cut background.)

By IC50 is commonly meant the concentration that gives 50% inhibition. On to `COc1ccc(-n2nnc3cnc(NC4CCC(O)C4)nc32)cc1` (single isomer, unassigned), for which the IC50 was under 1 µM. The result for `NC(=O)[C@@H]1CC[C@@H](Nc2ncc3nnn(-c4ccc(OCC(O)(C(F)(F)F)C(F)(F)F)cc4)c3n2)C1` reads under 1 µM.
